# Data as given in patent publication US20230310539A1, “TREATMENT OF DISEASE WITH EPOR ANTAGONIST” (Epo-Med Inc., priority 2020, published 2023).
# Test system: BT-474-R cells
# Assay: WST assay, Herceptin resistant breast cancer cell growth
# Type: cell-based, human
# Conditions: single agent, five days; ERA-350 3-100 μM, trastuzumab 0.001-100 μg/mL
# Experimental: The test used herceptin resistant breast cancer BT-474-R cells (provided by Dr. Kanzaki at the Okayama University) that were passaged (twice/week) under the conditions of 37° C. and 5% CO2-95% air by using D-MEM medium (Sigma, D6046-500 ML) containing 10% fetal bovine serum (biowest, S182-H-500).
# BT-474-R cells were seeded on a 96-well plate at 5×10^3 cells/well. ERA-350 (3, 10, 30, 50, or 100 μM), trastuzumab (Selleck Chemicals, A^2007) (0.001, 0.01, 0.1, 1, 10, or 100 μg/mL), or a combination thereof was added, and the cells were cultured for five days. The cell proliferation capability for each well was then measured by a WST assay (DOJINDO LABORATORIES, Cell Counting Kit-8), and the inhibition percentage for each test compound relative to the control (well without test compound) was calculated.
substance,measurement,value
trastuzumab,Proliferation inhibitory action on BT-474-R cells (inhibition percentage relative to control),modest inhibitory action
